Laboratory results taken from patent US4977153A.

Amino acid sequences for entries named in this document (tags omitted). Residues count along the entry.
UniProt H0W3H1, 1-470: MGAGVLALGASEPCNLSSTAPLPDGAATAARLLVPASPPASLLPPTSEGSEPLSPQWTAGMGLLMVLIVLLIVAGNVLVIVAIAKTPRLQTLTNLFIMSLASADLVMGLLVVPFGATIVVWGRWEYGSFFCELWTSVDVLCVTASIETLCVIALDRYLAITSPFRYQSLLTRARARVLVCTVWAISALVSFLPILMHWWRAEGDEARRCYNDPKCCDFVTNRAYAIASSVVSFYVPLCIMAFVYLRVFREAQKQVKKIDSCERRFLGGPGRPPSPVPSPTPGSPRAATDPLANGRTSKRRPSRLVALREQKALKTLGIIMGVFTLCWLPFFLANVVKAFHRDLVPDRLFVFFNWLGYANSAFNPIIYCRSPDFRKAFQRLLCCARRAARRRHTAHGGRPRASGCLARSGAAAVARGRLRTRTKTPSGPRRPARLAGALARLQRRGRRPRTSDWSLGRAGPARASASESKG
UniProt Q8K4Z4, whole entry: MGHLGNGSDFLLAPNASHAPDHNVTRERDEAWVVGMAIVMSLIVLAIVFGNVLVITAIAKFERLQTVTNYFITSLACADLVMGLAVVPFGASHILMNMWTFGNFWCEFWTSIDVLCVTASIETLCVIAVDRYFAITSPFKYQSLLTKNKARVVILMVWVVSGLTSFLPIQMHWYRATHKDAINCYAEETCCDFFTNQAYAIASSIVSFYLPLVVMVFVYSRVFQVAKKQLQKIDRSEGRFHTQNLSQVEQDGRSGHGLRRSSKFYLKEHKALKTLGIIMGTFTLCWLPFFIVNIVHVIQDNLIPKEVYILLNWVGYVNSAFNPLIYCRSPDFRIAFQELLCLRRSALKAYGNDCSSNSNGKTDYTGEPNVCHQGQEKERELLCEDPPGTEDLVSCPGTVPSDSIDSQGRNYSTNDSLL
UniProt P18090, whole entry: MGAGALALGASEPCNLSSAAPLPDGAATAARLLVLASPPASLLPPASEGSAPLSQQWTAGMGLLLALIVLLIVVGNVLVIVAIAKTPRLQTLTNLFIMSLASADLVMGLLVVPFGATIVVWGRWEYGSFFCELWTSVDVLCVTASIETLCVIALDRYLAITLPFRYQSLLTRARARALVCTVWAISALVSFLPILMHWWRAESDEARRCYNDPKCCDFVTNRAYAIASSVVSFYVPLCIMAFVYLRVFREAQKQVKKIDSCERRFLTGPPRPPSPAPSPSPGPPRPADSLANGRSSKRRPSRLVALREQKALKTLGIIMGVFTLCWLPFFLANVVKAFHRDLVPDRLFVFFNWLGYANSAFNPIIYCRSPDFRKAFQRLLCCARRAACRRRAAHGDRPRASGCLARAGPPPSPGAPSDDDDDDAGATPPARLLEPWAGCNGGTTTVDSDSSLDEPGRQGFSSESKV

Experiments:
[1] = target: beta adrenoceptor (guinea pig atrium) (Cavia porcellus, UniProt H0W3H1)
[2] = test system: beta adrenoceptor (guinea pig trachea); conditions: selectivity index, guinea pig trachea vs atrium
[3] = target: beta adrenoceptor (guinea pig trachea) (Cavia porcellus, UniProt Q8K4Z4)
[4] = target: beta adrenoceptor (heart) (Rattus norvegicus, UniProt P18090); assay: inhibition of isoproterenol-induced tachycardia in the pithed rat; format: in vivo
[5] = test system: resting heart rate in the pithed rat; conditions: maximum effect of cumulative doses of drug up to 3 mg/kg

Row | SMILES | Kb [1] | selectivity (cardiac atrial vs tracheal) [2] | IC50 [3] | Pithed Rat Effective Dose (ID50) [4] | Maximum Change in Resting Heart Rate in the Pithed Rat [5]
1 | CCCOCCOc1ccc(OCC(O)CNCCNC(=O)Nc2ccc3cn[nH]c3c2)c(C#N)c1 (stereo not shown) | 2.2 nM | 45000 | > 100000 nM | – | –
2 | CCCOCCOc1ccc(OCC(O)CNCCNC(=O)Nc2ccc3[nH]ncc3c2)c(C#N)c1 (stereo not shown) | 1.2 nM | – | 40000 nM | 2 µg/kg | +119
